Values quoted from earlier work in US20260042854A1, “ANTI-GLP-1R ANTIBODIES AND USES THEREOF” (SCIWIND BIOSCIENCES USA CO., LTD, priority 2022, published 2026).

By UniProt entry, the sequences of proteins in these tests, tags left out. Residues count along the entry.
UniProt P43220, 24-463: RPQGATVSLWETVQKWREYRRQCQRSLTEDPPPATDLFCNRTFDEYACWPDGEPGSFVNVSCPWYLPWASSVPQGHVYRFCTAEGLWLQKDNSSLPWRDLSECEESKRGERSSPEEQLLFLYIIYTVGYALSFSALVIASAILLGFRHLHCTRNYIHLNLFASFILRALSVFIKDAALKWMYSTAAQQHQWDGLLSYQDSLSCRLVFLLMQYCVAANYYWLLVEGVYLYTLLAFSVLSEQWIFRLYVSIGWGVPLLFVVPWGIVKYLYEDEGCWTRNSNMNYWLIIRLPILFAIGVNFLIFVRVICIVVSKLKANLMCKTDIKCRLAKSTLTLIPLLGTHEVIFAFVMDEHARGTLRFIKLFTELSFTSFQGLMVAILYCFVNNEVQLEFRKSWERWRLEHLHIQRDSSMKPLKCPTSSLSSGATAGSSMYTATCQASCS

Target: GLP-1R (Homo sapiens, UniProt P43220)
Settings: background statement; cited from earlier work

exendin 9-39 [Avexitide, reference compound]
clinical efficacy in hypoglycemia (in words): clinically demonstrated the efficacy of reversing hypoglycemia
